Experimental data reported in article PMC12313985.
pKd: −log10 of the molar value.

Protein sequences, listed by entry. Tags and fused reporters are not part of them. Lines headed by an entry give the natural chain unless they say otherwise; changes in a name come on top.
UniProt P63104: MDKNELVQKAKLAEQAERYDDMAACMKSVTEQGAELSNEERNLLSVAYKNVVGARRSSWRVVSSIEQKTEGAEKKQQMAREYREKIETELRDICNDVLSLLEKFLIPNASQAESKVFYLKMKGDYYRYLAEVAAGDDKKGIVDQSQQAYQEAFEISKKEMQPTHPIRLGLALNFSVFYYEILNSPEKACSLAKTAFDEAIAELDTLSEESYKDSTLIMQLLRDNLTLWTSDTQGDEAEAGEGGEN

Biological target: 14-3-3 protein zeta (14-3-3ζ) (UniProt P63104)
Experiment: not stated; KD told in the text with a pointer to Fig. 2f (a thermal stability panel); how this value was got is not told

PKA-phosphorylated full-length human Tau (PKA-Tau) (from UniProt P10636-8 1-441) (natural protein)
pKd: 6.00
